Kd data for 1 molecule are collected here from patent US9428504B2, “7-hydroxy-spiropipiperidine indolinyl antagonists of P2Y1 receptor” (BRISTOL-MYERS SQUIBB COMPANY, priority 2012, dated 2016).

Amino acid sequences for entries named in this document (tags omitted). A change or cut given only in a name is not applied to a line headed by its entry.
UniProt P47900: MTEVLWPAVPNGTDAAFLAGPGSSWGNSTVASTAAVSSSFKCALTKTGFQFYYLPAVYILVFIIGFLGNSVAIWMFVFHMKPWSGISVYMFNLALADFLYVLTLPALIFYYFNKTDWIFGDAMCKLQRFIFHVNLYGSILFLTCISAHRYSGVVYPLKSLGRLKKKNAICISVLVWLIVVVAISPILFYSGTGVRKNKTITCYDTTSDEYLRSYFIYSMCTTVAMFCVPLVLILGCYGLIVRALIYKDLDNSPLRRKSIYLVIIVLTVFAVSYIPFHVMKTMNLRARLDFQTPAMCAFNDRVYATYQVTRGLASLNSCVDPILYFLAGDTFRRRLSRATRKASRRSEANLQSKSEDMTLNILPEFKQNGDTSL

In this experiment the target is cloned human P2Y1 receptors (Homo sapiens (Human), UniProt P47900). Put plainly: Binding Assay B: Scintillation Proximity Assay (SPA) for P2Y1 binding. Particulars: read-out: Kd for 2MeS-ADP to the P2Y1 receptor. The procedure:
A SPA membrane binding assay was used to identify inhibitors of [^33P] […] Binding reactions were performed in 384-well OptiPlates (PerkinElmer Life Sciences, Cat #6007299) in a volume of 50 μL containing ˜15 fmol of P2Y1 receptor (1.7 μg of total protein), 0.3 nM [^33P] […] Reactions were allowed to proceed to completion at room temperature for 1 hour followed by centrifugation of the plate for 5 min. About 40 μL of the aqueous solution was aspirated. Plates were sealed and the [^33P]

In general, Kd refers to the free concentration of one partner at which half of the binding sites on the other are occupied at equilibrium, for simple one-to-one binding. In the case of `CSc1nc(N)c2ncn([C@@H]3O[C@H](COP(=O)(O)OP(=O)(O)O)[C@@H](O)[C@H]3O)c2n1` [Example 2MeS-ADP, 2 methylthio adenosine diphosphate, reference compound], the Kd was found to be 14 nM.
